Read-outs that look alike come from different tables or passages of the source.
Conditions: 10% by weight in unheated CNSL, 80° C.

O=P(O)(O)O [Phosphoric Acid, phosphoric acid]
Cardanol 15:1 Composition (%) (Day 0): 1.54% | Cardanol 15:1 Composition (%) (Day 3): 1.53%
